Consider one compound from patent publication US4272507A, “Phenylaminothiophenacetic acids, their synthesis, compositions and use” (priority 1978, dated 1981).

Data set [1] has as its system yeast-induced fever in rats. Nature of the data set: Antipyretic action: yeast-induced fever in rats. Format: in vivo, rats (female Sprague-Dawley). Conditions: LD50 7 days. How it is done:
The antipyretic action is determined by the influence of the compounds to be tested on yeast-induced fever in rats.
Hyperthermia is produced in female Sprague-Dawley rats (in groups of 5 animals; weight of each animal: 160 to 180 g) by subcutaneous injection (neck) of 10 ml/kg of a 20 percent strength aqueous brewer's yeast suspension (brewer's yeast "Heliosan"/Hefereformwerk Radolfzell). 24 hours after the yeast injection, the compounds to be tested are administered orally to the animals in a volume of liquid of 5 ml/kg, and a control group receives the corresponding amount of tapwater. The feed (Altromin®R, water ad libitum) was withdrawn from the rats 18 hours beforehand. The rats are kept at about 23° C.
The body temperature is recorded 1 hour before administration of the substance and at hourly intervals after administration of the substance.
[…] The body temperature is measured with a temperature probe (Tastomed H, Braun electronic).

A short description of data set [2]: in vivo. The note with it: rat, po.

Molecules are shown by their SMILES.

One may read the LD50 as the dose expected to kill half of the subjects tested. Low readings indicate a more toxic substance, high ones a less toxic substance. On to `O=C(O)Cc1csc(Cl)c1Nc1c(Cl)cccc1Cl` [Compound 10, 5-chloro-4-(2,6-dichloroanilino)-3-thiophenacetic acid], for which, in data set [1], the “Therapeutic quotient LD50/ED2.5” value was more than 40. The compound also returned an LD50 at 168 h in data set [2] of more than 20 mg/kg.
